This note sets out measurements from ChEMBL document CHEMBL4196202, “Discovery and Structure-Based Optimization of Benzimidazole-Derived Activators of SOS1-Mediated Nucleotide Exchange on RAS” (J Med Chem, 2018).

In assay [1] the target is T1, Son of sevenless homolog 1 (Homo sapiens, UniProt Q07889).
T1 sequence (Q07889 whole entry): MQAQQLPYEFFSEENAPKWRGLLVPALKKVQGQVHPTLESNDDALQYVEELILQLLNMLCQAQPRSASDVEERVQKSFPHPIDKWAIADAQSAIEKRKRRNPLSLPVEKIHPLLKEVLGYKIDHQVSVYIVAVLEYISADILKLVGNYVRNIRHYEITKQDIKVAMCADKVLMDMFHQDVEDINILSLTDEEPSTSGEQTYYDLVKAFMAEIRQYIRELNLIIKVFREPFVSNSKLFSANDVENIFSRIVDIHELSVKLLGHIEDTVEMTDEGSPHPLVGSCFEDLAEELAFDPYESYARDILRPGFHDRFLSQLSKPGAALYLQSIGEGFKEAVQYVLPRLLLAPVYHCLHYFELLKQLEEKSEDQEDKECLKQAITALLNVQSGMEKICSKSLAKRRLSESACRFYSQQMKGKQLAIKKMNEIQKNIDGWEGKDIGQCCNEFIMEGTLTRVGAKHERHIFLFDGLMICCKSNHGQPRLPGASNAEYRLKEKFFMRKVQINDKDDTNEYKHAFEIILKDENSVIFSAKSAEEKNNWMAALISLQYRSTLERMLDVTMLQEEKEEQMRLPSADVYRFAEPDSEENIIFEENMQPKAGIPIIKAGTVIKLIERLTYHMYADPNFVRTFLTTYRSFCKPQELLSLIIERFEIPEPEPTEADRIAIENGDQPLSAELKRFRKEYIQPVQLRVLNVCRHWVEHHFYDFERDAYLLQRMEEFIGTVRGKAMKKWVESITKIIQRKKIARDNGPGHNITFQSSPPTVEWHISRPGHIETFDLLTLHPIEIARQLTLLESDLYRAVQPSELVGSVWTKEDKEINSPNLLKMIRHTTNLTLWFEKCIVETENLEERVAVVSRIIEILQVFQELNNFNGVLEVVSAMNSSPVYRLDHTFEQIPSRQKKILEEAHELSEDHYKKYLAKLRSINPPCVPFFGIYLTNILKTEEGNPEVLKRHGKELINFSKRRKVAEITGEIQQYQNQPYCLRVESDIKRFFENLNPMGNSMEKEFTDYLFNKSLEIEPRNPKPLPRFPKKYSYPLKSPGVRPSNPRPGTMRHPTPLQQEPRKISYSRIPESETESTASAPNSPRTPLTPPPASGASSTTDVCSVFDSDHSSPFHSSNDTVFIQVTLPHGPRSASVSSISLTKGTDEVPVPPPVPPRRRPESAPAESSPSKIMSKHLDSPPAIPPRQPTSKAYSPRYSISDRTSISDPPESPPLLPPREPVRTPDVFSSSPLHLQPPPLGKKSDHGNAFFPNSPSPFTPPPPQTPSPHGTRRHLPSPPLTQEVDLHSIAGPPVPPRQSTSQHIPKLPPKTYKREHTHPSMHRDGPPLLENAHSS
The assay can be described thus: Binding affinity to human recombinant N-terminal His6-tagged SOS1 (564 to 1049 residues) expressed in BL21-RIL Escherichia coli by fluorescent probe S2 based fluorescence polarization anisotrophy saturation binding assay.

The target in assay [2] is T1, Son of sevenless homolog 1. The assay can be described thus: Activation of SOS1 in human HeLa cells expressing wild type KRAS assessed as induction of ERK1/2 T202/Y204 phosphorylation incubated for 30 mins by In-cell Western assay. The assay is classed as cell-based.
In assay [3] the target is Son of sevenless homolog 1 (Homo sapiens, UniProt Q07889). The assay can be described thus: Activation of SOS1 in human NCI-H727 cells expressing KRAS G12V mutant assessed as induction of ERK1/2 T202/Y204 phosphorylation incubated for 30 mins by In-cell Western assay. The assay is classed as cell-based.
Assay [4] addresses T2, Son of sevenless homolog 1 (Homo sapiens) (UniProt Q07889).
T2 sequence (whole entry): T1 sequence (Q07889 whole entry)
The assay can be described thus: Biphasic activity at of SOS1 in human HeLa cells expressing wild type KRAS assessed as induction of ERK1/2 T202/Y204 phosphorylation at 1.5 to 100 uM (lower range) incubated for 30 mins by In-cell Western assay. The class given is cell-based.

Assay [5] has as its target T2, Son of sevenless homolog 1 (Homo sapiens). The assay can be described thus: Biphasic activity at of SOS1 in human HeLa cells expressing wild type KRAS assessed as reduction in ERK1/2 T202/Y204 phosphorylation at 1.5 to 100 uM (higher range) incubated for 30 mins by In-cell Western assay. The class given is cell-based.
The target is the same in assay [6]. The experiment in a line: Activation of SOS1 in human NCI-H727 cells expressing KRAS G12V mutant assessed as induction of ERK1/2 T202/Y204 phosphorylation at 1.5 to 100 uM (lower range) incubated for 30 mins by In-cell Western assay. The assay is classed as cell-based.
Assay [7] has the same target. The assay can be described thus: Activation of SOS1 in human NCI-H727 cells expressing KRAS G12V mutant assessed as induction of ERK1/2 T202/Y204 phosphorylation at 1.5 to 100 uM (higher range) incubated for 30 mins by In-cell Western assay. The class given is cell-based.

The structures appear in SMILES notation. Activity calls are given as the source filed them. No cut-off for these calls is given here.

On to `Cc1cc(Cn2c(N3CCNCC3)nc3c(-c4c(C)n[nH]c4C)cc(Cl)cc32)cc(C)c1F`, for which, in assay [1], the dissociation constant Kd – broadly, the constant that tells how readily two partners part at equilibrium – was under 0.1 µM. The concentration for a half-maximal effect (EC50) (as a rule, the concentration at which the effect is half-maximal) in assay [2] was found to be 9 µM; in assay [3], 15.6 µM. Besides, the result in assay [4], in assay [5], in assay [6] and in assay [7] was Active.
